Results taken from publication PMC12143788.

Target: GST-tagged AP2 core comprising α/β-adaptin trunks, μ2, and σ2 (UniProt P18484)
Assay: pull-down; 100 μg recombinant GST fusion protein on beads with 0.2 μM and 2 μM recombinant synuclein in 500 μl pulldown buffer (250 mM NaCl, 10 mM Tris pH 8.7, 2 mM DTT), 2 h at 4 °C; washes 3 × 15 min with 500 mM NaCl; Western blot, band intensity in arbitrary units

Substance: recombinant full-length human α-synuclein (a.a. 1–140) (from UniProt P37840 1-140) (natural protein)
- band intensity of α-synuclein pulled down, at 0.2 μM α-synuclein: 3670 AU
- band intensity of α-synuclein pulled down, at 2 μM α-synuclein: 14600 AU
